Data reported in BindingDB's records for doi:10.1097/00001756-199710200-00002 (Cnrs Upr 9023, 1997).

Amino acid sequences for entries named in this document (tags omitted). A change or cut given only in a name is not applied to a line headed by its entry.
UniProt Q62758: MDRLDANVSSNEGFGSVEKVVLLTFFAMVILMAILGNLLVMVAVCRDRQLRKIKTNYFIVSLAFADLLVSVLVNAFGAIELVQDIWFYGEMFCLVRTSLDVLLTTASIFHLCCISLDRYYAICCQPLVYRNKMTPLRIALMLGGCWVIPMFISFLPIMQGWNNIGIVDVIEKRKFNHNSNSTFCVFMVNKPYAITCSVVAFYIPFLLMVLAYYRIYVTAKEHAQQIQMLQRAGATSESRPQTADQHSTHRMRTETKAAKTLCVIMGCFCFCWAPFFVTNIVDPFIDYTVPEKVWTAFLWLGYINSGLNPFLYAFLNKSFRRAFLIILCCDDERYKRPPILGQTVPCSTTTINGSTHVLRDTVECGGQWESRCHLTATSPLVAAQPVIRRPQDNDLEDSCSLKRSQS

Biological target: 5-hydroxytryptamine receptor 4 (Rattus norvegicus, UniProt Q62758)

Question: With `NCCc1c[nH]c2ccc(O)cc12` [[3H]-5-HT] as the compound, how does the Ki read?
Answer: The Ki was 38.9 nM.
